Target: D(2) dopamine receptor (Rattus norvegicus) (UniProt P61169)
Assay: Affinity constant of compound was evaluated in rat striatum tissue preparation.
Assay type: tissue-based

Chains of the proteins cited; added tags and fusions are not shown.
UniProt P61169, whole entry: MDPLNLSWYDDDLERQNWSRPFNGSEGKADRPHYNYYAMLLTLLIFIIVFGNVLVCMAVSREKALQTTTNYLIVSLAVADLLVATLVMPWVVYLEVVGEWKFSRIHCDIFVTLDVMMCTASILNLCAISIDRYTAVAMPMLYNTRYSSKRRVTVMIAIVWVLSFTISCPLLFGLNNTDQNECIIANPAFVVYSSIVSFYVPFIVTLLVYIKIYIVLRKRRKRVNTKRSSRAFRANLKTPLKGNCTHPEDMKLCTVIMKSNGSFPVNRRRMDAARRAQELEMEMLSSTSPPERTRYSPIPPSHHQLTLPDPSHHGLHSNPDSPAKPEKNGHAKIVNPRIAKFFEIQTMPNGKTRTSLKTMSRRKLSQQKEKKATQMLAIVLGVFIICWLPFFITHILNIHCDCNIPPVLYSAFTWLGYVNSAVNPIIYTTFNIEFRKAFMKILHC

- Bmax (pM (mg of protein)-1): 0.48
SMILES: CCN1CCCC1CNC(=O)c1c(OC)ccc(I)c1O (stereo unspecified)

Reference: ChEMBL document CHEMBL1124222 (J Med Chem, 1988)
